The results in this text go back to PubChem BioAssay AID588795 (National Center for Advancing Translational Sciences (NCATS), 2011).

The chains behind the UniProt entries cited, without tags or fusion partners.
UniProt P39748, whole entry, looked up: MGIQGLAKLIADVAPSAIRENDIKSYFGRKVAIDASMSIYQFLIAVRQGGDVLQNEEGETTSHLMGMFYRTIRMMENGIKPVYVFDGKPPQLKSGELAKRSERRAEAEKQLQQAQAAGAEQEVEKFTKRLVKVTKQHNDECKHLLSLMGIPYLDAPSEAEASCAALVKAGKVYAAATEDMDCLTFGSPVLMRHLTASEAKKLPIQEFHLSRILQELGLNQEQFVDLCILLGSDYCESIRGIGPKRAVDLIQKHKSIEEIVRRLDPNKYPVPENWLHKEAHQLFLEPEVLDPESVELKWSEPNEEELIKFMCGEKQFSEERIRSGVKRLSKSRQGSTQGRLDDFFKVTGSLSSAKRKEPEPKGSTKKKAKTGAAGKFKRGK

The structures appear in SMILES notation. Only a part is listed here, and it is no random draw. Active and inactive are the calls of the source. The call rests on the fitted dose curve; in most records, active means well fitted inhibition curve with a large enough effect; inconclusive means small, poorly fitted or top-dose-only effect; inactive means no such curve, though single readings can be large or run the other way. Where a call stands in place of a potency, no number is given.
Potency means the concentration at half of the fitted maximal effect.

This assay has as its target Flap endonuclease 1 (Homo sapiens) (UniProt P39748). Nature of the assay: qHTS Assay for the Inhibitors of Human Flap endonuclease 1 (FEN1). Further: nearly all actives have a fitted effect of over 65% in size. The note with it: Recombinant FEN1 flap cleavage, fluorescence, 15 min; series mostly up to 114 µM. On the technique in general: In qHTS, concentration-response curves come from the screen itself.
For the molecule `NS(=O)(=O)c1cccc(NC(=O)COC(=O)C(O)(c2ccccc2)c2ccccc2)c1`, the Potency result is “inactive”.

Turning to `O=P1(Nc2ccc(Br)cn2)COc2ccccc2OC1`, the Potency result is “inactive”.

Turning to `O=[As](O)(c1cccs1)c1cccs1`, the Potency result is “inactive”.

As to `Cc1ccc(OCC(=O)OC2CN3CCC2CC3)cc1` (stereo not given), the Potency result is “inactive”.

In the case of `CCOP(=O)(NC(=NC(C)c1ccccc1)NC(C)c1ccccc1)OCC` (stereo not given), the Potency entry was “inactive”.

For `CCC1=CC2Cc3nc4ccc(Cl)cc4c(N)c3C(C1)C2` (stereo not given), the Potency result was “inactive”.

As to `O=P1(Nc2ccccn2)COc2ccccc2OC1`, the Potency result was “inactive”.

Consider `CN(CCCl)Cc1cc(Cl)c(NC2=NCCN2)c(Cl)c1`, for which the Potency entry is “inactive”.

Regarding `CCOP(=O)(Nc1ccc(C)cn1)OCC`, the Potency result is “inactive”.

With `Clc1n[nH]nc1-c1nn[nH][15n]1`, the Potency result is “inactive”.

Consider `COc1ccccc1CNC(=O)COC(=O)C(O)(c1ccccc1)c1ccccc1`, for which the Potency result was “inactive”.

`CN(C(=O)Cc1ccc(Cl)c(Cl)c1)[C@@H]1CCCC[C@H]1N1CCCC1`: the Potency entry is “inactive”.

Turning to `CC1(CBr)Cn2c(nc3ccccc3c2=O)S1` (stereo not given), the Potency result was “inactive”.

For `O=C(OC1CN2CCC1CC2)c1ccc(Cl)cc1` (stereo not given), the Potency result is “inactive”.

Regarding `COc1cc(C(=O)NCC2(N3CCOCC3)CCCCC2)cc(Cl)c1OC(C)C`, the Potency result was “inactive”.

On to `O=[As](O)(O)c1cccnc1`, for which the Potency entry is “inactive”.

As for `O=[As](O)(c1cccc(O)c1)c1cccc(O)c1`, the Potency result was “inactive”.

On to `Cc1cccc(OCC(=O)OC2CN3CCC2CC3)c1` (stereo not given), for which the Potency entry is “inactive”.

On to `Nc1cccc2c([As](=O)(O)O)cccc12`, for which the Potency entry was “inactive”.

Consider `Cc1ccc(NCCc2c([N+](=O)[O-])cc([N+](=O)[O-])cc2[N+](=O)[O-])cc1`, for which the Potency result is “inactive”.

For the molecule `CCCOP(=S)(Nc1nc(N)cc(=O)[nH]1)OCCC`, the Potency result was “inactive”.

Regarding `CCOP(=O)(Nc1cccc2ccccc12)OCC`, the Potency result is “inactive”.

Turning to `COc1cc(C2NCCC3(OCCO3)C2(C)C)cc(OC)c1OC` (stereo not given), the Potency entry is “inactive”.

As for `O=P(Nc1nccs1)(c1ccccc1)c1nc2ccccc2s1` (stereo not given), the Potency result is “inactive”.

For the molecule `O=P(Nc1nccs1)(Oc1ccccc1)Oc1ccccc1`, the Potency result is “inactive”.

In the case of `CCOP1(=S)c2c(C)nn(CCC#N)c2N=C(c2ccccc2F)N1C` (stereo not given), the Potency entry is “inactive”.

With `CS(=O)(=O)c1cc([N+](=O)[O-])c2no[n+]([O-])c2c1`, the Potency was active: 44.7 µM.

With `O=C(O)COc1ccc([As](=O)(O)O)cc1[N+](=O)[O-]`, the Potency result was “inactive”.

For `Nc1ccccc1[As](=O)(O)c1ccccc1`, the Potency entry is “inactive”.

With `NC(=O)Nc1ccc([As](=O)(O)O)cc1`, the Potency result was “inactive”.

As to `CN(C(=O)Cc1ccccc1)[C@@H]1CC[C@]2(CCCO2)C[C@H]1N1CCCC1`, the Potency entry was “inactive”.

Regarding `CCOP1(=S)c2c(C)nn(CCC#N)c2N=C(c2ccc(F)cc2)N1C` (stereo not given), the Potency result was “inactive”.

For the molecule `N#CCCN(C(=O)COC(=O)C(O)(c1ccccc1)c1ccccc1)c1ccc(F)cc1`, the Potency entry is “inactive”.

Regarding `CN(C(=O)Cc1ccc(Cl)c(Cl)c1)[C@H]1CC[C@@]2(CCCO2)C[C@@H]1N1CCCC1`, the Potency entry was “inactive”.

In the case of `CN(C)C(=O)c1cc([N+](=O)[O-])cc2c1-c1c(cc([N+](=O)[O-])cc1[N+](=O)[O-])C2=O`, the Potency entry was “inactive”.
